Reference: paper PMC3875372 (Biochemistry, 2013)

Legend:
ecDHFR = settings: DHFRs modified at position 115, Table 3; relative to wild type
[1] = N-pentenoyl protected form, in acetonitrile

4-biphenyl-L-phenylalanine
relative activity (%) (ecDHFR): 91 ± 3%
ΦF (fluorescence quantum yield) [1]: 0.73
ε [1]: 38,250
λex (nm) [1]: 283 nm
λmax (nm) [1]: 283 nm
λem (nm) ([1]; excited at λmax): 344 nm
